Experimental data reported in ChEMBL document CHEMBL1147532, “The design, preparation and SAR of novel small molecule sodium (Na(+)) channel blockers” (Bioorg Med Chem Lett, 2004).
Only a part of the results on these compounds is given; other tests are left out.

The chains behind the UniProt entries cited, without tags or fusion partners.
UniProt P10635, whole entry: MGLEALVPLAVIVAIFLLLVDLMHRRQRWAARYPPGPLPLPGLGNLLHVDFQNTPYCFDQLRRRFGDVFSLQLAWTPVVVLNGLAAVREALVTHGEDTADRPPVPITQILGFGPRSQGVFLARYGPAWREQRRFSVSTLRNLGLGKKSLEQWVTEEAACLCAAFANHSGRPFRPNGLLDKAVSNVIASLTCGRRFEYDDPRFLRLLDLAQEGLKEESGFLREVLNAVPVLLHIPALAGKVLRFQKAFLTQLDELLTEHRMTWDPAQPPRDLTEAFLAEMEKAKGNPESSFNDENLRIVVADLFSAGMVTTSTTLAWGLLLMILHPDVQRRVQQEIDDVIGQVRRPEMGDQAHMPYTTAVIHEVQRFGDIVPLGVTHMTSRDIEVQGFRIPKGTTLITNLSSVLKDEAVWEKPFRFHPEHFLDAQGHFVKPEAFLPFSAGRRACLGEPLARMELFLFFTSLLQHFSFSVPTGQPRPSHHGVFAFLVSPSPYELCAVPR
UniProt P04775, whole entry: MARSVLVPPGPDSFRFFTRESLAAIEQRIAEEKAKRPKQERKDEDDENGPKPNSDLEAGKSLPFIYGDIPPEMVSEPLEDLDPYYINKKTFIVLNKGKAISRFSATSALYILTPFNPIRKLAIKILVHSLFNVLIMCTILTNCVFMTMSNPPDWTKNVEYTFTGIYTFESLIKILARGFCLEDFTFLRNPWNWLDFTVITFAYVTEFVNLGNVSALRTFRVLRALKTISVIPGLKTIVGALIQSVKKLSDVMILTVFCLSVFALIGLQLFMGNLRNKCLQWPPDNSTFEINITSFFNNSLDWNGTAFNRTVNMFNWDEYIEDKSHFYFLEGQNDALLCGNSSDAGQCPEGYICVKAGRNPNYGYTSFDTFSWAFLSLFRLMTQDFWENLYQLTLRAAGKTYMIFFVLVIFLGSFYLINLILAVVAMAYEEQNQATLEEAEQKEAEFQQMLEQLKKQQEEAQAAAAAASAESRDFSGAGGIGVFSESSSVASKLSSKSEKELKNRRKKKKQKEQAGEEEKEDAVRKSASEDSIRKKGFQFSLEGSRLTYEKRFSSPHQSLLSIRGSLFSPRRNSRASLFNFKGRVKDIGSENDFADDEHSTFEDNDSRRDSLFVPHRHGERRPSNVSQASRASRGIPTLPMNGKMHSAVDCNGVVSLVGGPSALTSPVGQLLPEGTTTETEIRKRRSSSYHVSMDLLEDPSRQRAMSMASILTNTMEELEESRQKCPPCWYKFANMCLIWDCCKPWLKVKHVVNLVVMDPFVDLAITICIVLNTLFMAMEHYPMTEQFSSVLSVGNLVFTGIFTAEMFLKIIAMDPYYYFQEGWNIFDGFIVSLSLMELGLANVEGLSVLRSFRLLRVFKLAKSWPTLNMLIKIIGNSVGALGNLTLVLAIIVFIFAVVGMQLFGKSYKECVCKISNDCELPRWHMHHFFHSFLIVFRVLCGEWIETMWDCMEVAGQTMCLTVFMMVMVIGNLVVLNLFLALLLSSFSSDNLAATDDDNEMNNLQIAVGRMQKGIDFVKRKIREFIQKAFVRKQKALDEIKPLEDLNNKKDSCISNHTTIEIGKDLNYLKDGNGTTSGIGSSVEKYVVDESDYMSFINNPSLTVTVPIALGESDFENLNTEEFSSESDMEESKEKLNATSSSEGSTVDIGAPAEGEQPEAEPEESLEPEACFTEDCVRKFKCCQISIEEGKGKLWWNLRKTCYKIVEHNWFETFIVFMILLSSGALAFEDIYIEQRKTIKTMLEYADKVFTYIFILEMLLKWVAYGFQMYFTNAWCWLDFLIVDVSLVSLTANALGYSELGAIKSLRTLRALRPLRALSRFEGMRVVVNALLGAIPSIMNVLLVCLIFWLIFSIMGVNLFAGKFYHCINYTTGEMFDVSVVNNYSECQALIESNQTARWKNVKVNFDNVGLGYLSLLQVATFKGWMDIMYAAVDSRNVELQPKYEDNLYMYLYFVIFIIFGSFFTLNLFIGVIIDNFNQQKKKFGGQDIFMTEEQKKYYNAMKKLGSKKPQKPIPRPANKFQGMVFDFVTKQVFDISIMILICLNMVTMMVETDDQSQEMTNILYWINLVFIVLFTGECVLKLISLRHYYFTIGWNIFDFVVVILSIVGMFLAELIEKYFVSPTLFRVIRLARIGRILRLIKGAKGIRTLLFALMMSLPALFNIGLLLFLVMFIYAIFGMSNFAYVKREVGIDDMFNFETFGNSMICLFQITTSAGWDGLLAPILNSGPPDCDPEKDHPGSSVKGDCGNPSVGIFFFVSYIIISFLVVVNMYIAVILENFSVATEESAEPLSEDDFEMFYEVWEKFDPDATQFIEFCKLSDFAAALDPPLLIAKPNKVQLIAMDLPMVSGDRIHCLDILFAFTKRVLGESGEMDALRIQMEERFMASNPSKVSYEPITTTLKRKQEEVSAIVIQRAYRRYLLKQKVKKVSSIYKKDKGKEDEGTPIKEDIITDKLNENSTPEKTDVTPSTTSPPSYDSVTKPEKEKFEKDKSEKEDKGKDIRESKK
UniProt P08104, whole entry: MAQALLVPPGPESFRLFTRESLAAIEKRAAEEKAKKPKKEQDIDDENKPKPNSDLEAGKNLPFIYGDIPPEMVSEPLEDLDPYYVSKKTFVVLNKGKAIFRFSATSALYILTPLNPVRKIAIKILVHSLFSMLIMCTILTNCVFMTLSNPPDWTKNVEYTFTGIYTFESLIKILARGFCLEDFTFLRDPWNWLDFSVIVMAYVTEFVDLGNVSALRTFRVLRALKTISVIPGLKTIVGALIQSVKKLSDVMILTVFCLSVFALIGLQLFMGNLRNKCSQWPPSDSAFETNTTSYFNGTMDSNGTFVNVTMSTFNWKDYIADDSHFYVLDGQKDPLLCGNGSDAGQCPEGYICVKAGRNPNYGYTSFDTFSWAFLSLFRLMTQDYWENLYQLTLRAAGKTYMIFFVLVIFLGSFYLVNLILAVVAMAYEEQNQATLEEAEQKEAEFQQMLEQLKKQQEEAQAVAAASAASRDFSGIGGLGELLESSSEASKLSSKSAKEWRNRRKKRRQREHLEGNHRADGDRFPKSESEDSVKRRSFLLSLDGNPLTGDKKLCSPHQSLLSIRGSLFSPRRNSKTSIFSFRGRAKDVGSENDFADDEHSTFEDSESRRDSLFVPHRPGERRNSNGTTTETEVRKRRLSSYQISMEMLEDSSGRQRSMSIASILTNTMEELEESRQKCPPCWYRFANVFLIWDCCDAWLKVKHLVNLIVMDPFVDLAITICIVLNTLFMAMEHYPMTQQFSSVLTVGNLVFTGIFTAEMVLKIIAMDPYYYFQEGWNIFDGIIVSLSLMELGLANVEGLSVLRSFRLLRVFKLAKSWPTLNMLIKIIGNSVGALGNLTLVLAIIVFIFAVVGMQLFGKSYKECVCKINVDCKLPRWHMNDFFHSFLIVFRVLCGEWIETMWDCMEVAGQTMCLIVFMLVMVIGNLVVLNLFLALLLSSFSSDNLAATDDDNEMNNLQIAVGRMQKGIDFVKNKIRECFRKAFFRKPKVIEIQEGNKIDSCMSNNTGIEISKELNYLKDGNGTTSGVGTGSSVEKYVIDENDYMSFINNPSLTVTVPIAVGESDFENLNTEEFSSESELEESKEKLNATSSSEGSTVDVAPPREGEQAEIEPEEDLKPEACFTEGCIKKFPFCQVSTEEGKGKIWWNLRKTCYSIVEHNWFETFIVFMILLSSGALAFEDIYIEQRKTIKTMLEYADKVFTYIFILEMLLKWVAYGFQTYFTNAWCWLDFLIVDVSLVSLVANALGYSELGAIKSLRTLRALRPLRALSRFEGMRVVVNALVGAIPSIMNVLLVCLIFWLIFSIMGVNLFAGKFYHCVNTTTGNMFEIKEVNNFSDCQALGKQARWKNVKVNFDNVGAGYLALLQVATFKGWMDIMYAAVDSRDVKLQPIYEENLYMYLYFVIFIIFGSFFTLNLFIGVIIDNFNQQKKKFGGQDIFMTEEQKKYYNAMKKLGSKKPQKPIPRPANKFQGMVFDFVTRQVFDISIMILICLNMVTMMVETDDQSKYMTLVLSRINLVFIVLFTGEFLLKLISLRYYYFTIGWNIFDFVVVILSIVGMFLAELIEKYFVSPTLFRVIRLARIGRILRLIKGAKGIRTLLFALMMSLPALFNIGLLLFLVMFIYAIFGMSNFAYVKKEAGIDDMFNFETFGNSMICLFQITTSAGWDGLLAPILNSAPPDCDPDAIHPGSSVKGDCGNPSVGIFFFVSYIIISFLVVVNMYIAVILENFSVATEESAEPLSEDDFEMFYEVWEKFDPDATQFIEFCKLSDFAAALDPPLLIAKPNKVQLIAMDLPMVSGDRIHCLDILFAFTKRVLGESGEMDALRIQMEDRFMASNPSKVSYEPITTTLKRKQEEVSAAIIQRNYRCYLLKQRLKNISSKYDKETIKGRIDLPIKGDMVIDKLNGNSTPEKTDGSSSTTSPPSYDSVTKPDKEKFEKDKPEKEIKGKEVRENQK

Columns and labels:
Cytochrome P450 2D6 = Cytochrome P450 2D6 (Homo sapiens, UniProt P10635)
[1] = target: Sodium channel alpha subunits; brain (Types I, II, III) (Rattus norvegicus, UniProt P04775+P04774+P08104); conditions: Cerebral cortex

## COc1ccc(OCC(O)CN2CCC(N(C(=O)c3ccc(Cl)cc3)c3ccc(F)cc3)CC2)cc1 (stereo not drawn)
Cytochrome P450 2D6
  Ki: 2 µM
[1]
  IC50: 0.214 µM

## COc1ccc(OCC(O)CN2CCC(N(C(=O)c3ccccc3)c3ccccc3)CC2)cc1 (stereo not drawn)
Cytochrome P450 2D6
  Ki: 2 µM
[1]
  IC50: 0.261 µM

## COc1ccc(OCC(O)CN2CCC(N(C(=O)c3ccc(Cl)cc3)c3ccccc3)CC2)cc1 (stereo not drawn)
Cytochrome P450 2D6
  Ki: 1 µM
[1]
  IC50: 0.228 µM

## COc1ccc(OCC(O)CN2CCC(N(C(=O)c3ccccc3)c3ccc(F)cc3)CC2)cc1 (stereo not drawn)
Cytochrome P450 2D6
  Ki: 1 µM
[1]
  IC50: 0.194 µM
